Data as given in ChEMBL document CHEMBL5107989, “Design, synthesis and activity evaluation of isopropylsulfonyl-substituted 2,4- diarylaminopyrimidine derivatives as FAK inhibitors for the potential treatment of pancreatic cancer” (Eur J Med Chem, 2022).

By UniProt entry, the sequences of proteins in these tests, tags left out. Where a name states a change or a piece, a line headed by the entry shows the natural chain unless it says otherwise.
UniProt Q9UM73: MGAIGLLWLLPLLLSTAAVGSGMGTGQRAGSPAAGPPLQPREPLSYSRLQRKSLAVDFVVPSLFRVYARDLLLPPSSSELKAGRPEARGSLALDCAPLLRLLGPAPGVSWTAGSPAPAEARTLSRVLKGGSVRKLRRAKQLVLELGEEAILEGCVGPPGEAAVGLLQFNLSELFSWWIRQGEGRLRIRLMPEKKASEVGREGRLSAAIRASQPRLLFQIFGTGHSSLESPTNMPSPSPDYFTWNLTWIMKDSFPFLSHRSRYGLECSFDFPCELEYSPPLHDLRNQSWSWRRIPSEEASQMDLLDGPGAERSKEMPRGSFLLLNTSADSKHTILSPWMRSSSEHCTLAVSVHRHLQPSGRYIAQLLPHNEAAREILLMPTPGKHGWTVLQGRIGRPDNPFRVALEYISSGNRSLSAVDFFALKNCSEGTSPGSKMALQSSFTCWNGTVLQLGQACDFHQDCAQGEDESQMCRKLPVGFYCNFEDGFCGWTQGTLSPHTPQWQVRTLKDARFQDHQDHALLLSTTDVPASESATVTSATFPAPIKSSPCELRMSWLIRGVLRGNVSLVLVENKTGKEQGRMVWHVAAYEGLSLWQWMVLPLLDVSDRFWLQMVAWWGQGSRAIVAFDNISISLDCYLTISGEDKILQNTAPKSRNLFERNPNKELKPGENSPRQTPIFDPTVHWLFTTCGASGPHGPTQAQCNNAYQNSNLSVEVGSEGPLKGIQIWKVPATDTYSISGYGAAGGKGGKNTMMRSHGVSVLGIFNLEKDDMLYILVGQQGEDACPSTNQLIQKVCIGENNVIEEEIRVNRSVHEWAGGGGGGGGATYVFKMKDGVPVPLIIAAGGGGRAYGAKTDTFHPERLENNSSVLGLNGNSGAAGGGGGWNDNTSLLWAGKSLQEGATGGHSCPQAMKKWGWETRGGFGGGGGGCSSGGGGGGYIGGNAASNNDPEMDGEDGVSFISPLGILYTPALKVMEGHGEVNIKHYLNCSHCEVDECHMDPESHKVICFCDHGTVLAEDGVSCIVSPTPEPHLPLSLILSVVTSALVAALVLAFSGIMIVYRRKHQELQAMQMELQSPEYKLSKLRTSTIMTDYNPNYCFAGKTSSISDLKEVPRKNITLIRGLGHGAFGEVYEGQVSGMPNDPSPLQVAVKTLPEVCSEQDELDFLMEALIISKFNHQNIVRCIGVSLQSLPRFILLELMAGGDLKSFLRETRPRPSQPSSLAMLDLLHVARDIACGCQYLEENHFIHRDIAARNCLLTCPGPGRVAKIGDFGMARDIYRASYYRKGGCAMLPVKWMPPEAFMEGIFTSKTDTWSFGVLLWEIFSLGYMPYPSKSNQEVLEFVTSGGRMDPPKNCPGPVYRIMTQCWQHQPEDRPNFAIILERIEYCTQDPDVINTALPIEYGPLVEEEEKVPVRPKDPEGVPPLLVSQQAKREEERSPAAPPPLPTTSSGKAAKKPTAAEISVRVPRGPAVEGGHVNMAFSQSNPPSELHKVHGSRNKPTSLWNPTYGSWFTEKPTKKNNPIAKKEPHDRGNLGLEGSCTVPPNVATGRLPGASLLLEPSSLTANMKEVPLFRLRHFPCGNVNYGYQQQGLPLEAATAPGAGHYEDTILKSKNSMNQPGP
UniProt Q08345: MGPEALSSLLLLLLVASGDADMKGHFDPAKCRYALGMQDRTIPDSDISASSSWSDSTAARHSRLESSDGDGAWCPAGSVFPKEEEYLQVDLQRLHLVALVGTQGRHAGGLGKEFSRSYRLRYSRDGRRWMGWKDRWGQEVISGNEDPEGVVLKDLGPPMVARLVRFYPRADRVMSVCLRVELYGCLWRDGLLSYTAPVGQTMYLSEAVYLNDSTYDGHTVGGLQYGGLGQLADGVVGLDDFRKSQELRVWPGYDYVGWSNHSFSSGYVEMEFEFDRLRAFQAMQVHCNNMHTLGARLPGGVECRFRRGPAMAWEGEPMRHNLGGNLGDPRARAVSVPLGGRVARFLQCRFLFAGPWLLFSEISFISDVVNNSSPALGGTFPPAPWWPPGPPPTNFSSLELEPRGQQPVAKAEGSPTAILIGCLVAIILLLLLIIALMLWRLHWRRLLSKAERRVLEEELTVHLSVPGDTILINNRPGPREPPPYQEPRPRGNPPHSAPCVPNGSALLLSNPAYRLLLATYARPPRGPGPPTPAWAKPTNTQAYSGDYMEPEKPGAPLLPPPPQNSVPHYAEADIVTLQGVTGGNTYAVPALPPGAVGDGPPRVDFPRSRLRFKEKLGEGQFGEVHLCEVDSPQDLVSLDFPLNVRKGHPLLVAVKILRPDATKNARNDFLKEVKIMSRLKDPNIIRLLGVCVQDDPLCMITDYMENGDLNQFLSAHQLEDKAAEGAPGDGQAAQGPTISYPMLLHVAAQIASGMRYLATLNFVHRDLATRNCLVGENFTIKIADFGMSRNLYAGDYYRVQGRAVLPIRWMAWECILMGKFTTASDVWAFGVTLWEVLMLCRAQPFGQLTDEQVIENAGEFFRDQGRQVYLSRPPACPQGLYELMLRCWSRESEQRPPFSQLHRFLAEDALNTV
UniProt Q14289, whole entry, looked up: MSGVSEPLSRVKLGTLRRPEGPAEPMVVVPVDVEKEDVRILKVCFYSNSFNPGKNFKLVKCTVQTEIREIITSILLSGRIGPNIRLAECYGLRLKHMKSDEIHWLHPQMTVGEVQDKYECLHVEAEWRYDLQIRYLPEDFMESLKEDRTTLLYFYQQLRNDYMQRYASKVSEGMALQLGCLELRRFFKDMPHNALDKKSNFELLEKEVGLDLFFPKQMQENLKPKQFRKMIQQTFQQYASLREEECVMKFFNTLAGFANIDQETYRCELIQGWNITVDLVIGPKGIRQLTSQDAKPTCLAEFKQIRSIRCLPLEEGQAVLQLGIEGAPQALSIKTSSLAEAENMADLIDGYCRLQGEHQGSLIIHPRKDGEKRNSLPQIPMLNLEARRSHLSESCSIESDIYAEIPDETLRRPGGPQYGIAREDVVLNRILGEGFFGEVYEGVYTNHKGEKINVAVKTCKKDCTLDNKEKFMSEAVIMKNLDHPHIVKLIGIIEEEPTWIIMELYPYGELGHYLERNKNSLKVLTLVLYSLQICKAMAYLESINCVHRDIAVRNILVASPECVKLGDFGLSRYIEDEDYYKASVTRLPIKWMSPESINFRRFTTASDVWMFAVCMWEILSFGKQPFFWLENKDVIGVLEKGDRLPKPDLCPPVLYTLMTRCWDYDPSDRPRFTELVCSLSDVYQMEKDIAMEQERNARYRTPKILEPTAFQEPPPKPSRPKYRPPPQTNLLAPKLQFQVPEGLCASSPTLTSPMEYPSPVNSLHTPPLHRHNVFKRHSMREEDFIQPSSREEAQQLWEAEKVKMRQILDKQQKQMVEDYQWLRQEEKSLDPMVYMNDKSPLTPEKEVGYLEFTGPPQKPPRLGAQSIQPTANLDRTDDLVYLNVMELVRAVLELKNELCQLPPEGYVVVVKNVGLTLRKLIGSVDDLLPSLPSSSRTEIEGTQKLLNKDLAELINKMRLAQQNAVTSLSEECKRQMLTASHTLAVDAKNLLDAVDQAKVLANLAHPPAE

What was measured:
Details in all cases: dose 10.0 nM
[1] = biological target: ALK tyrosine kinase receptor (Homo sapiens) (UniProt Q9UM73)
[2] = biological target: T1, Muscle, skeletal receptor tyrosine-protein kinase (Homo sapiens) (UniProt O15146)
T1 sequence (whole entry): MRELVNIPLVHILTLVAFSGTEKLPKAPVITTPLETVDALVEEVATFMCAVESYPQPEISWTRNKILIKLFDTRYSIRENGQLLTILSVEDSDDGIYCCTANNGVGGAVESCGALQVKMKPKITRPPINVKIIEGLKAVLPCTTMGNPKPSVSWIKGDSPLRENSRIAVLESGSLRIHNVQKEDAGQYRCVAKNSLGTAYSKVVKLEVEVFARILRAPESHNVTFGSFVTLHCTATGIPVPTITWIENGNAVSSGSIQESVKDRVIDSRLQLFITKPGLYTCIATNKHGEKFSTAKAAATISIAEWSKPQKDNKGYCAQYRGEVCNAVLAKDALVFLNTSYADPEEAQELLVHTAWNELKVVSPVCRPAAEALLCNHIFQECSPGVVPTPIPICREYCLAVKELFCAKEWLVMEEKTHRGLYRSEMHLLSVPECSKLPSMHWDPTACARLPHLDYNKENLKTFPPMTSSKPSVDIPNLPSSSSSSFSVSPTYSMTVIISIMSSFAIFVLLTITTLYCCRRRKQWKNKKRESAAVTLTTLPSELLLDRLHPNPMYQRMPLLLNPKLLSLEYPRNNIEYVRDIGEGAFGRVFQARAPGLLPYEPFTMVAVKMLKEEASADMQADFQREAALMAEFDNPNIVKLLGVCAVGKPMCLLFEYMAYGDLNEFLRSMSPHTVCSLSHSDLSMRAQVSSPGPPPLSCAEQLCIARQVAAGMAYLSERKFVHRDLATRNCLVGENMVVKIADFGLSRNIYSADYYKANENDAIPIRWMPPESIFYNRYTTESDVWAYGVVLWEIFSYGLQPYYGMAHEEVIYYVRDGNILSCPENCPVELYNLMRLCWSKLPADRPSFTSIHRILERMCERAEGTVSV

[3] = biological target: Epithelial discoidin domain-containing receptor 1 (Homo sapiens) (UniProt Q08345)
[4] = biological target: Protein-tyrosine kinase 2-beta (Homo sapiens) (UniProt Q14289)

- inhibition [1]: 92.7%
- inhibition [2]: 93.4%
- inhibition [3]: 91%
- inhibition [4]: 91.5%
Compound: CCOP(=O)(CC(=O)Nc1ccc(Nc2ncc(Cl)c(Nc3ccccc3S(=O)(=O)C(C)C)n2)cc1)OCC
